The structures appear in SMILES notation. This is a selection; strong and weak results do not stand in their true shares. Active and inactive are the calls of the source.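 Rule for the calls: active = inhibition above the mean of all tested compounds plus 3 SD, set per campaign (cut at about 25% in these data); inactive = the rest.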

By UniProt entry, the sequences of proteins in these tests, tags left out.
UniProt O95551, whole entry: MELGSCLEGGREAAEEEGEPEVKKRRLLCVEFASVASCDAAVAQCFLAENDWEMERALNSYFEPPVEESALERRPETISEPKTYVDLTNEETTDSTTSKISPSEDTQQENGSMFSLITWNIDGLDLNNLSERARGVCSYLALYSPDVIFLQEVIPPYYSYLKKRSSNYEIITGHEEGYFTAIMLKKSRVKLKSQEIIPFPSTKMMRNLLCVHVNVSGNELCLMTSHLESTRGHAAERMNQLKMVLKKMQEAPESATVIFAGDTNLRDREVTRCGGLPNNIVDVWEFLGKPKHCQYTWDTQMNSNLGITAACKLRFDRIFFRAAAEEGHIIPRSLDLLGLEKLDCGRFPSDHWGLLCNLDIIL

In the assay the target is Tyrosyl-DNA phosphodiesterase 2 (Homo sapiens) (UniProt O95551). The experiment in a line: human TDP2 enzyme inhibitors, primary screen, biochemical, epi absorbance, recombinant enzyme (AID 720702).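 Note: 0% = DMSO with enzyme and 100% = buffer with substrate but no TDP2.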 The conditions noted are these: recombinant TDP2, T5PNP hydrolysis, p-nitrophenol absorbance 415 nm; at 12.8 µM; stronger effect = higher value. The procedure, abridged: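 System: recombinant human TDP2 / Amount: 120 nM TDP2 per well / Also added: 5 mM T5PNP chromogenic substrate / Doses: 12.8 µM single point, 1% DMSO / Incubation: 2 h at 37 °C / Detection: p-Nitrophenol epi absorbance / Evaluation: % inhibition relative to enzyme-containing and enzyme-free wells / Repeats: singlicate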
For orientation: inhibition means the change of the read-out against control, counted positive when it falls. Take `Cc1cc(C)cc(OP(C)(=O)Nc2ccc(SC(F)(F)F)cc2)c1` (configuration not stated): the inhibition is inactive: 2.64%.
Regarding `CCc1ccc(OP(C)(=O)N2CCN(c3ccc([N+](=O)[O-])cc3)CC2)cc1` (configuration not stated), the inhibition is inactive: -3.63%.
To `CP(=O)(NC(=O)Nc1ccccc1)Oc1ccccc1` (configuration not stated) belongs inactive: 11.3%.
To `CP(=O)(Oc1ccccc1)OC(c1ccccc1)C(F)(F)F` (configuration not stated) belongs inactive: 0%; to `CP(=O)(Nc1ccc(SC(F)(F)F)cc1)Oc1ccc(Cl)cc1` (configuration not stated), inactive: -8.26%.
Then `Cc1cccc(C)c1OP(C)(=O)Nc1ccc(SC(F)(F)F)cc1` (configuration not stated), with inactive: 6.29%; and `CP(=O)(Nc1ccccn1)Oc1ccc(Cl)cc1` (configuration not stated), with inactive: 2.75%.
With `O=[N+]([O-])c1cc([N+](=O)[O-])c(O)c([N+](=O)[O-])c1.c1ccc(Oc2ccncc2)cc1`, the inhibition was inactive: -5.29%.
`CCOC(=O)c1ccc(NP(C)(=O)Oc2ccc(OC)cc2)cc1` (configuration not stated): the inhibition was inactive: 8.63%.
Turning to `CCOP(C)(=S)SCC(=O)NC(C)C(=O)O` (configuration not stated), the inhibition is inactive: -5.92%.
To `CP(=O)(Nc1ccccc1Br)Oc1ccccc1` (configuration not stated) belongs inactive: -4.1%; to `COc1ccccc1OP(C)(=O)Nc1ccccc1` (configuration not stated), inactive: 1.91%; to `CP(=S)(Nn1cnnc1)Oc1ccccc1` (configuration not stated), inactive: 8.24%.
Take `O=[N+]([O-])c1ccc2c(c1)C=Nc1ccccc1O2`: the inhibition is inactive: -2.66%.
Turning to `Cc1cccc(C)c1OP(C)(N)=O` (configuration not stated), the inhibition is inactive: -1.85%.
As for `CC(C)(C)c1ccc(OP(C)(=O)Nc2ccc(SC(F)(F)F)cc2)cc1` (configuration not stated), the inhibition was inactive: 1.15%.
Turning to `O=[N+]([O-])c1cc([N+](=O)[O-])c(Nc2cccnc2)c([N+](=O)[O-])c1`, the inhibition was inactive: 2.93%.
Consider `Cc1cc(C)cc(OP(C)(N)=O)c1` (configuration not stated), for which the inhibition was inactive: -11%.
To `COc1ccc(OP(C)(=O)Nc2cccc(F)c2)cc1` (configuration not stated) belongs inactive: 5.39%.
Then `COc1ccccc1OP(C)(=O)Nc1cc(Cl)ccc1C` (configuration not stated), with inactive: -1.58%; and `Cc1ccc(NP(C)(=O)Oc2ccccc2)c(C)c1` (configuration not stated), with inactive: 5.69%; and `COc1ccccc1OP(C)(=O)Nc1ccc(C)cc1` (configuration not stated), with inactive: -10.2%.
Then `CCOC(=O)c1ccc(NP(C)(=O)Oc2ccccc2)cc1` (configuration not stated), with inactive: 5.68%; and `CCN(CC)CCCOC(=O)C(O)(c1ccccc1)c1ccccc1`, with inactive: -9.85%.
For the compound `COc1ccccc1-c1ccccn1.O=[N+]([O-])c1cc([N+](=O)[O-])c(O)c([N+](=O)[O-])c1`, the inhibition was inactive: 0.17%.
To `CCOC(=O)c1ccc(NP(C)(=O)Oc2cc(C)cc(C)c2)cc1` (configuration not stated) belongs inactive: -11.6%; to `Cc1cc(C)cc(OP(C)(=O)Nc2ccc(C)cc2C)c1` (configuration not stated), inactive: -15%; to `COc1ccccc1OP(C)(=O)Nc1cccc(Br)c1` (configuration not stated), inactive: 10.7%.
To `Cc1ccc(C)c(NP(C)(=O)Oc2ccccc2)c1` (configuration not stated) belongs inactive: 6.73%; to `CP(=O)(Nc1cccc(Br)c1)Oc1ccccc1` (configuration not stated), inactive: 1.89%; to `Cc1cc(C)cc(OP(C)(=O)Nc2ccccn2)c1` (configuration not stated), inactive: -5.06%.
Then `O=C(O)c1cccc(Nc2c([N+](=O)[O-])cc([N+](=O)[O-])cc2[N+](=O)[O-])c1`, with inactive: -16%; and `CC1=NCCc2c1[nH]c1ccccc21.O=[N+]([O-])c1cc([N+](=O)[O-])c(O)c([N+](=O)[O-])c1`, with inactive: 5.51%; and `CCOC(=O)C(CC)C1=NC(C)(C)Cc2ccccc21.O=[N+]([O-])c1cc([N+](=O)[O-])c(O)c([N+](=O)[O-])c1` (configuration not stated), with inactive: -8.48%.
On to `O=[N+]([O-])c1cc([N+](=O)[O-])c(Nc2nnnn2CCO)c([N+](=O)[O-])c1`, for which the inhibition was inactive: -6.61%.
With `COc1ccc(-c2ccccn2)cc1.O=[N+]([O-])c1cc([N+](=O)[O-])c(O)c([N+](=O)[O-])c1`, the inhibition is inactive: -19%.
For the compound `CP(=O)(Nc1ccc(SC(F)(F)F)cc1)Oc1ccccc1` (configuration not stated), the inhibition was inactive: -8.19%.
Then `CCCOc1ccc(NP(C)(=O)Oc2ccc(Cl)cc2)cc1` (configuration not stated), with inactive: -9.99%; and `CN1CCCCC1COC(=O)C1(O)c2ccccc2CCc2ccccc21` (configuration not stated), with inactive: -2.3%; and `COc1ccccc1OP(C)(=O)Nc1c(C)cccc1C` (configuration not stated), with inactive: 3.76%.
Then `CN(Cc1cccnc1)C(=O)COc1ccc(Cl)c(Cl)c1.O=[N+]([O-])c1cc([N+](=O)[O-])c(O)c([N+](=O)[O-])c1`, with inactive: -6.9%; and `O=[N+]([O-])c1cc([N+](=O)[O-])c(-n2nnc3ccccc32)c([N+](=O)[O-])c1`, with inactive: -0.14%.
As to `Cc1nc2ccc3ccccc3c2s1.O=[N+]([O-])c1cc([N+](=O)[O-])c(O)c([N+](=O)[O-])c1`, the inhibition is inactive: -10.2%.
Then `O=[N+]([O-])c1cc([N+](=O)[O-])c(-c2cnn(-c3ccccc3)c2)c([N+](=O)[O-])c1`, with inactive: -7.35%; and `CCOP(C)(=S)SCC(=O)NC(C)(CC)C(=O)O` (configuration not stated), with inactive: 14.9%.
Consider `CCOP(=O)(CC)OCC`, for which the inhibition was inactive: 4.89%.
Then `CP(=O)(Nc1ccc(SC(F)(F)F)cc1)Oc1ccc(F)cc1` (configuration not stated), with inactive: -4.41%; and `Cc1ccccc1NP(C)(=O)Nc1ccccc1C`, with inactive: -10.4%.
In the case of `O=[N+]([O-])c1cc([N+](=O)[O-])c(C(F)(F)F)c([N+](=O)[O-])c1O`, the inhibition was inactive: -17.8%.
Then `CP(=O)(Nc1ccc2c(c1)OCCO2)Oc1ccccc1` (configuration not stated), with inactive: 12.9%; and `CN(C)CCOC(=O)C(O)(c1ccccc1)C1CCCCC1` (configuration not stated), with inactive: 2.07%.
Then `COc1ccc(NP(C)(=O)Oc2ccccc2OC)cc1` (configuration not stated), with inactive: 10.6%; and `COc1ccc(OP(C)(=O)Nc2cccc(Br)c2)cc1` (configuration not stated), with inactive: -16%.
Then `Cc1c(C(c2ccc3c(c2)OCO3)c2c(C)n(C)n(-c3ccccc3)c2=O)c(=O)n(-c2ccccc2)n1C.O=[N+]([O-])c1cc([N+](=O)[O-])c(O)c([N+](=O)[O-])c1`, with inactive: 3.19%; and `O=[N+]([O-])c1ccc(OP2(=O)COCCO2)cc1` (configuration not stated), with inactive: 10.8%; and `Cc1cc(-c2cccc3ccccc23)c(C)cn1.O=[N+]([O-])c1cc([N+](=O)[O-])c(O)c([N+](=O)[O-])c1`, with inactive: -6.9%.
With `O=[N+]([O-])c1cc([N+](=O)[O-])c(NCC2CCS(=O)(=O)C2)c([N+](=O)[O-])c1` (configuration not stated), the inhibition was inactive: 11.3%.

The values above are taken from PubChem BioAssay AID720702 (The Scripps Research Institute Molecular Screening Center, 2013).
